Source: US9844584B2, “Composition for preventing or treating sepsis” (priority 2012, dated 2017)

Tested on: rats with LPS induced sepsis
Format: in vivo, Sprague-Dawley rat
Description: In this experiment, after causing the inflammation associated with sepsis in Sprague-Dawley rat administered with the test substance, and then the PEP 1 blood nitric oxide (NO), and cytokines were measured.
Used Sprague-Dawley rat was a specific pathogen-free SPF rats which was obtained from Orient Bio (Gyeonggi-do, Republic of Korea Gapyeong mokdongri Buk-myeon).
8.5 weeks old, among 100 male rats with a body weight less than 250 g±20%, observations of seven days, 96 healthy males (mean 9.5 weeks, mean body weight (g) of ±20% or less) became targets of experiment which was carried out.
Divide the 48 rats in all four groups were administered the PEP 1 and/or LPS for each group.
All routes of administration were intravenous administration.
Specifically, the exemplary formulations and PEP 1 prepared in Example 2/or the LPS was administered by intravenous injection formulation.
Both times were administered once.
The dose was administered by calculating 2 mL/kg on the basis of the measured weight before administration to the last
Dosage of each group was carried out as in the following Table.
First, PEP 1 for all animal and/or blood sample was collected before administration of LPS on the day before by 0.8 mL.
All subjects were bled on the following day for the first administration of LPS administered according to the above table, LPS after 30 minutes from the time of administration, PEP 1 dose administration was performed for the subject group.
After completion of the administration of LPS administered every 75 minutes and 255 minutes from the time (i.e., PEP 1 from the time of administration of each 45 minutes and 195 minutes) at each blood sample was 0.8 mL.
With respect to the sampling of blood was used for analyzing cytokines.
TNF-α, IL-1b and IL-6 concentrations were measured which were the main indicator of cytokines in sepsis.

## CC[C@H](C)[C@H](NC(=O)[C@H](Cc1ccccc1)NC(=O)[C@H](CCCNC(=N)N)NC(=O)[C@H](CC(C)C)NC(=O)[C@H](CCCNC(=N)N)NC(=O)[C@H](CO)NC(=O)[C@@H](NC(=O)[C@H](CC(C)C)NC(=O)[C@H](CC(C)C)NC(=O)[C@H](C)NC(=O)[C@@H]1CCCN1C(=O)[C@H](CCCNC(=N)N)NC(=O)[C@H](C)NC(=O)[C@@H](N)CCC(=O)O)[C@@H](C)O)C(=O)N1CCC[C@H]1C(=O)N[C@@H](CCCCN)C(=O)O [PEP 1]
LPS 0.5 mg/kg i.v., PEP 1 1.5 mg/kg i.v. single dose 30 minutes after LPS, blood 195 minutes after PEP 1, vs LPS alone, FIG. 1
  concentration of TNF-α in the blood: significantly reduced
LPS 0.5 mg/kg i.v., PEP 1 1.5 mg/kg i.v. single dose 30 minutes after LPS, blood 195 minutes after PEP 1, vs LPS alone, FIG. 2
  concentration of IL6 in the blood: significantly reduced
LPS 0.5 mg/kg i.v., PEP 1 1.5 mg/kg i.v. single dose 30 minutes after LPS, blood 195 minutes after PEP 1, vs LPS alone, FIG. 3
  concentration of IL1b in the blood: significantly reduced
Single dose of 1.5 mg/kg, intravenous
  survival of rats: all rats were found to be alive
